Shown are actives, neighbours in structure and some others; about 1.2% of the full set was active somewhere.
Statin myotox sup: protects C2C12 myotubes from simvastatin toxicity | rescue of ATP level, % at 7.49 µM | AID 602340 | 330,000 compounds, 0.78% hits | ATP luminescence, 48 h; scaled: DMSO 0, geranylgeraniol control 100;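 active means mean ATP rescue above about 67%, or every replicate alone reaching that limit, limit read from the data, passing the limit was not always enough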;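 further: myotubes were challenged with 10 µM simvastatin during compound exposure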
UUG fidelity: yeast start codon fidelity modulation; AID 602363; activity score, % at 18.7 µM; S. cerevisiae UUG-firefly luciferase reporter, luminescence/redox ratio; 0.13% of 350,000 active;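 active means replicate mean at a twofold rise or more, about +100% in these data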;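 further: firefly luciferase made from a UUG start codon reports start codon fidelity; reporter light over untreated wells divided by growth signal over untreated wells; some hits fall short of that in this replicate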
miR-122 sensor: inhibitors of miR-122 in Huh7 cells. Huh7 miR-122 Renilla luciferase sensor, 48 h; neutral wells = 0, positive control = 100. activation (reporter increase), % at 12.5 µM. 340,000 compounds, 0.3% hits;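 active means mean replicate activation score at least 90 and every replicate individually at or above 90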;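 further: higher luciferase means less miR-122 activity so hits act as miR-122 inhibitors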
Cneo AK release: causes C. neoformans cell lysis; AID 651654; lysis activity, % at 15 µM; 360,000 compounds, 0.2% hits; adenylate kinase release luminescence, 4 h; normalised: neutral wells 0, clomiphene wells 100;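 active means mean lysis activity across replicates of at least 80%, whatever share of replicates individually reach that level; inactive means mean lysis activity below 80%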
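Material – Cryptococcus neoformans yeast cells · Quantity – 5 × 10^6 yeast cells/mL · Buffer or medium – YPD medium · Compound – single dose · Timing – 4 h static compound exposure, 37 °C, read 1 h post-reagent · Signal – adenylate kinase release luminescence · Read-out basis – lysis from increased AK signal · Benchmarks – Clomiphene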
* = called active by the depositor; · = no result; [ ] = another dose, or the depositor's remark.

SMILES | Statin myotox sup | UUG fidelity | miR-122 sensor | Cneo AK release
O=C(NCCCn1ccnc1)/C(=C/c1ccccc1)NC(=O)c1ccccc1 | 12 | · | 11 | ·
CCCNC(=O)c1ccc(CNc2c(N3CCC(C(=O)OCC)CC3)c(=O)c2=O)cc1 | 133* | -14 | 0 | 1
CCOC(=O)C1CCN(c2c(NCc3ccc(C(=O)NCCC(C)C)cc3)c(=O)c2=O)CC1 | 6 | 7 | -1 | 0
OC(c1ccc(Cl)c(F)c1)c1ncc(-c2cccc(F)c2)[nH]1 (centres undefined) | 7 | -10 | 124* | 0
Cc1cc(C(O)c2ncc(-c3ccccc3)[nH]2)ccc1F (centres undefined) | -2 | -22 | 158* | -2
CO[C@H]1CN(C)C(=O)c2cc(NC(C)=O)ccc2OC[C@H](C)N(CCc2ccccc2)C[C@H]1C | 10 | 0 | 2[16.7 µM] | 2
O=C(CN1C(=O)/C(=C\c2ccco2)SC1=S)Nc1ccc(O)cc1C(=O)O | 96* | -11 | -2 | 5
O=C(CNC(=O)c1ccc(Br)cc1)N/N=C/c1cccnc1 | 109* | -10 | 1 | -1
C=CCn1cc(-c2ccc(Cl)cc2)cc(C#N)c1=O | 5 | 4 | -3 | 0
C=CCn1cc(-c2ccccc2)cc(C#N)c1=O | 141* | 1 | -4 | 2
O=C(NC(=S)Nc1ccccc1N1CCOCC1)c1cccc([N+](=O)[O-])c1 | · | -19 | · | 258*
COc1ccc(C(=O)Nc2ccccc2N2CCOCC2)cc1Br | 117* | -9 | 8 | -2
C[C@@H]1CCCCO[C@H](CN(C)C(=O)CCCN(C)C)[C@@H](C)CN([C@@H](C)CO)C(=O)c2cc(NC(=O)CCC(F)(F)F)ccc2O1 | -6 | 19 | 7[16.7 µM] | -3
C[C@H]1CN([C@@H](C)CO)C(=O)c2cccc(N(C)C)c2O[C@@H]1CN(C)S(=O)(=O)c1cccs1 | -34 | -4 | -4[16.7 µM] | -2
CNC[C@H]1Oc2c(NC(=O)NC3CCCCC3)cccc2C(=O)N([C@@H](C)CO)C[C@@H]1C | -10 | · | -6[16.7 µM] | ·
Cc1ccc(S(=O)(=O)NCC(=O)OCC(=O)c2cccs2)cc1 | 125* | -7 | -9 | -2
CCN1[C@@H]2Cn3c(ccc(-c4ccccc4F)c3=O)[C@H]1[C@@H](C(=O)NCc1ccc(F)cc1)[C@@H]2CO | 20 | · | · | -2
COc1ccc(C2CC(=O)C(C=NCCN3CCOCC3)=C(O)C2)cc1 (centres undefined) | 126* | 7 | 4 | 0
COc1cccc(NC(=O)N2C[C@H](O)COC[C@H]3O[C@@H](CC(=O)NCCCN4CCOCC4)CC[C@@H]32)c1 | 1 | · | 3[16.7 µM] | -2
CCCN(C)C[C@H]1Oc2ncc(C#CC3CC3)cc2C(=O)N([C@H](C)CO)C[C@@H]1C | 34 | 26 | -3[16.7 µM] | ·

The last 2 records of the section before are carried over, then new ones follow.
SMILES | Statin myotox sup | UUG fidelity | miR-122 sensor | Cneo AK release
COc1cccc(NC(=O)N2C[C@H](O)COC[C@H]3O[C@@H](CC(=O)NCCCN4CCOCC4)CC[C@@H]32)c1 | 1 | · | 3[16.7 µM] | -2
CCCN(C)C[C@H]1Oc2ncc(C#CC3CC3)cc2C(=O)N([C@H](C)CO)C[C@@H]1C | 34 | 26 | -3[16.7 µM] | ·
C[C@@H]1CN([C@@H](C)CO)S(=O)(=O)c2ccc(/C=C/c3ccccc3)cc2O[C@H]1CN(C)C(=O)c1ccc2c(c1)OCO2 | 13 | -11 | 28[16.7 µM] | -2
C[C@@H]1CN([C@@H](C)CO)S(=O)(=O)c2ccc(C#CC3(O)CCCC3)cc2O[C@@H]1CN(C)C(=O)Cc1ccncc1 | -1 | -4 | · | 0
CS(=O)(=O)Nc1ccc2c(c1)[C@@H]1C[C@@H](CC(=O)NCC(F)(F)F)O[C@@H](CO)[C@@H]1O2 | 2 | 1 | 4[16.7 µM] | 1
O=C(Nc1ccccc1C(=O)NC(Cc1ccccc1)C(=O)NC1CCCCCC1)c1ccccc1 (centres undefined) | 119* | -14 | 2 | 0
O=C(Nc1ccccc1C(=O)NC1CCCCC1)c1ccccc1 | -20 | -13 | · | -4
COC(=O)C1=C(N)OC2=C(C(=O)CC(C)(C)C2)C1c1ccoc1 (centres undefined) | 98* | -24 | -7 | 1
C[C@@H]1CCCCO[C@H](CN(C)Cc2ccc(Cl)c(Cl)c2)[C@H](C)CN([C@@H](C)CO)C(=O)c2cc(NS(=O)(=O)c3cn(C)cn3)ccc2O1 | · | 7 | -8[16.7 µM] | 1
CC(C)C[C@H]1COCn2nncc2CC[C@@H](Cc2ccccc2)C(=O)N1 | · | · | · | 3
Clc1ccc(C(c2nnnn2C2CCCC2)N2CCN(c3nc4ccccc4s3)CC2)cc1 (centres undefined) | · | -21 | 14 | 3
c1cnc2ccc(C(c3nnnn3C3CCCC3)N3CCN(c4nc5ccccc5s4)CC3)cc2c1 (centres undefined) | 122* | -8 | 11 | 1
Cn1c(=O)c2c(nc(NC3CCCCC3)n2CC(O)COc2ccccc2)n(C)c1=O (centres undefined) | 81* | 5 | -5 | 0

miR-122 sensor, what is marked active above.
Structure | UUG fidelity | miR-122 sensor
OC(c1ccc(Cl)c(F)c1)c1ncc(-c2cccc(F)c2)[nH]1 (centres undefined) | -10 | 124*
Cc1cc(C(O)c2ncc(-c3ccccc3)[nH]2)ccc1F (centres undefined) | -22 | 158*
